Values of other authors, collected in patent US5462929A, “Treatment of psoriasis by administration of 4-carbamoyl-1-β-D-ribofuranosylimidszolium-5-oleate” (Asahi Kasei Kogyo Kabushiki Kaisha, priority 1991, dated 1995).

Tested on: rats
Conditions: female, p.o.; cited from earlier work

NC(=O)c1ncn([C@@H]2O[C@H](CO)[C@@H](O)[C@H]2O)c1O [Mizoribine, 4-carbamoyl-1-β-D-ribofuranosyl-imidazolium-5-olate]
LD50: > 2847 mg/kg
